Source: BindingDB's records for patent US9155743 (Astex Therapeutics, 2015)

Sequences of proteins named here, by UniProt entry; tags and fusion partners are left off.
UniProt P98170, whole entry: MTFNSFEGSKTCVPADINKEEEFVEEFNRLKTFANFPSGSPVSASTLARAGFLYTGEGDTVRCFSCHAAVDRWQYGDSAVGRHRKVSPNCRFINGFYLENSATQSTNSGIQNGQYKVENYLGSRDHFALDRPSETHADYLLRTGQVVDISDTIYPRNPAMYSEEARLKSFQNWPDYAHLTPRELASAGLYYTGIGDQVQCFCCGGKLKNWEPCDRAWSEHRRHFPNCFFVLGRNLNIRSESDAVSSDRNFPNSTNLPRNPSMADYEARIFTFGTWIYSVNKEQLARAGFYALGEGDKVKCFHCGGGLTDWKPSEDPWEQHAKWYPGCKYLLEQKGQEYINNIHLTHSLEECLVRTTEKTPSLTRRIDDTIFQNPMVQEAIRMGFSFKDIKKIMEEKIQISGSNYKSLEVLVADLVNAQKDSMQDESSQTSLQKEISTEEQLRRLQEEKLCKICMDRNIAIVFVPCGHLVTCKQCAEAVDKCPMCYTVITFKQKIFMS

Biological target: E3 ubiquitin-protein ligase XIAP (Homo sapiens, UniProt P98170)
Assay: ASSAY_NAME: In Vitro Competitive Displacement Binding Assay DESCRIPTION: Modified SMAC peptides and compounds were tested for their ability to displace the fluorescent tracer from either XIAP, cIAP-1 or cIAP-2. BIR3 domains of cIAP-1, cIAP-2 and XIAP were incubated with test compounds or SMAC based peptides and their respective peptide probes (Peptide Protein Research) in assay buffer (50 mM …
Conditions: pH 7.5

`CN[C@@H](C)C(=O)Nc1ccc2c(n1)N[C@@H](C)C(=O)N2` [US9155743, 15] was tested. Which IC50 did it give?
The IC50 was “in the range around 55 µM”.
